According to patent US7498304B2, “Angiogenesis-modulating compositions and uses” (Curis, Inc., priority 2002, dated 2009):

Key:
[1] = system: Shh signaling pathway in MEFs homozygous for ptc-lacZ (cell line 23-1); experiment: β-galactosidase activity in ptc-lacZ homozygous mouse embryonic fibroblasts; format: cell-based; conditions: normalized to whole protein content
embryonic prostate = conditions: W. Bushman, unpublished result; cited from earlier work

**Q.** Which results are given for `CC1=C2C[C@H]3[C@@H](CC=C4C[C@@H](O)CC[C@@]43C)[C@@H]2CC[C@]12O[C@@H]1C[C@H](C)CN[C@H]1[C@H]2C` [cyclopamine]?
**A.** β-galactosidase activity [1]: β-galactosidase activity is decreased; growth and branching of embryonic prostate (embryonic prostate): inhibits growth and branching
